Among the data in BindingDB's records for doi:10.1016/s0002-9343(98)00091-6 (Dallas Department of Veterans Affairs Medical Center, 1998) are IC50 values, retold here.

Amino acid sequences for entries named in this document (tags omitted).
UniProt P23219, whole entry: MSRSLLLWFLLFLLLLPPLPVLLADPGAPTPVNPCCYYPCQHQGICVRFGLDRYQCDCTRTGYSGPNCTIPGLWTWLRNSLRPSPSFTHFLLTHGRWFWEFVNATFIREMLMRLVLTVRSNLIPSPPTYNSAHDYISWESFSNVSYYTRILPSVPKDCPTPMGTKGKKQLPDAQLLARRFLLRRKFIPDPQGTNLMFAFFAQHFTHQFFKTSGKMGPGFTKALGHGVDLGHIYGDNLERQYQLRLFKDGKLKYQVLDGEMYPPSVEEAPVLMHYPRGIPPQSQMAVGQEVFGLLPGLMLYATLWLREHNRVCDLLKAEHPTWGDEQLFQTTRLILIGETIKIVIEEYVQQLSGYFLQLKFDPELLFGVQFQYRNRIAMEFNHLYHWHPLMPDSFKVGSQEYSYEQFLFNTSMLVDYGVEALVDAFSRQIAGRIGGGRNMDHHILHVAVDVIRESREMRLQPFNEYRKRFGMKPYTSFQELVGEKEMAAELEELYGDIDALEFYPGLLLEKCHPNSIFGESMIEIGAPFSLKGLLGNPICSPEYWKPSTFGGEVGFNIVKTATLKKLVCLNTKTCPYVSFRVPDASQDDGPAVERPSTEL

The experiment deals with Prostaglandin G/H synthase 1 (Homo sapiens, UniProt P23219).

In turn, `CC(C(=O)O)c1ccc(-c2ccccc2)c(F)c1` (racemic) [2-(2-fluoro-[1,1'-biphenyl-4-yl])propanoic acid] came in with an IC50 of 410 nM.
The same measure for `CN1C(C(=O)Nc2ccccn2)=C(O)c2ccccc2S1(=O)=O` [NSC_4856]: 2680 nM.
